We go through two substances from patent US9814801B2, “Thiol-ene polymerization with vinylesters and vinylcarbonate” (Depuy Synthes Products, Inc., priority 2011, dated 2017).

The data set has as its system fibroblast cell culture.

In the case of “poly(ethylene glycol-250)diacetic acid divinyl ester [PEG250DVE]”, the “IC50 [mM] (TC50 values of various monomers)” value is 0.63 mM.
The value for “poly(ethylene glycol-600) diacetic acid divinyl ester [PEG600DVE]” was 0.63 mM.
